The source of these data is patent US20240279191A1, “SMALL MOLECULE INHIBITORS OF TEAD-YAP” (The General Hospital Corporation, priority 2021, published 2024).

One data set is described as follows: logD 7.4. Particulars: pH 7.4.
Data set [1] is described as follows: Metabolic stability CLint, human (Tables H1, H2).
Data set [2] can be described thus: Metabolic stability CLint, mouse (Tables H1, H2).

`NC(=O)c1cncc(OC(=O)N2CCN(CCCCCc3ccccc3)CC2)c1` yielded a logD 7.4 in the data set “logD 7.4” of 3.8. The CLint human in data set [1] turned out to be 66 mL/min/kg. Also, the CLint mouse in data set [2] was 120 mL/min/kg.

Turning to `O=C(NCCc1ccccc1)C1CCN(C(=O)Oc2cccnc2)CC1`, the logD 7.4 in “logD 7.4” was found to be 2.54. Also, the CLint human in data set [1] was determined as 41 mL/min/kg. This compound registered a CLint mouse in data set [2] of 98 mL/min/kg.

With `O=C(NCc1ccccc1)C1CCN(C(=O)Oc2cccnc2)CC1`, in “logD 7.4”, the logD 7.4 was 2.5. Also, the CLint human in data set [1] was determined as 24 mL/min/kg. In data set [2], this compound showed a CLint mouse of 63 mL/min/kg.
